Screening data as filed in PubChem.
Rows were chosen to be rich in hits. Some 1.3% of all compounds tested hit in one or more screens of this group.
LGR2 inh: inhibitors of bursicon-induced Drosophila LGR2 receptor cAMP signaling. HEK293 LGR2, CRE-luciferase, bursicon-stimulated, 4 h. inhibition, % at 9.99 µM. 0.35% of 380,000 active;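 active = drop in luminescence signal, shown as inhibition above about 50% in the replicate tests, limit read from the data, passing the limit was not always enough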;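 note: agonist challenge used bursicon conditioned medium at about half maximal strength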
PglD inh: inhibitors of Campylobacter jejuni PglD acetyltransferase | purified PglD enzyme, DTNB colorimetric CoA detection | inhibition, % at 12.5 µM | 0.098% of 360,000 active | AID 602405; in the data active = inhibition above about 16%, passing the limit was not always enough
CFTR F508del cor: CFTR F508del correction in bronchial cells. CFBE cells, YFP halide quenching; stimulated with forskolin plus potentiator P3; % fluorescence drop versus neutral controls. activity (quench increase), % at 7.58 µM. 0.36% of 350,000 active;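 active = mean added fluorescence quench of at least 8% versus neutral control, with both replicates also reaching 8%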;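 note: cells transiently co-express mutant CFTR-F508del with the halide-sensitive YFP; corrector assay measuring rescue of mutant channel to the surface after 24 h compound exposure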
miR122 inh: miR-122 inhibition in Huh7 cells | Huh7 miR-122 Renilla luciferase sensor, 48 h; neutral wells = 0, positive control = 100 | activation (reporter increase), % at 12.5 µM | 0.3% of 340,000 active;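 active = mean replicate activation score at least 90 and every replicate individually at or above 90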;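 note: higher luciferase means less miR-122 activity so hits act as miR-122 inhibitors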
UUG fidelity: modulators of yeast start codon fidelity, primary screen, whole organism, S. cerevisiae, single point, plate reader; S. cerevisiae UUG-firefly luciferase reporter, luminescence/redox ratio; activity score, % at 18.7 µM; actives 0.13% (n = 350,000); AID 602363, 2012;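 active = replicate mean at a twofold rise or more, about +100% in these data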;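 also: firefly luciferase made from a UUG start codon reports start codon fidelity; reporter light over untreated wells divided by growth signal over untreated wells; some hits fall short of that in this replicate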
EWS-Fli block: EWS/Fli transcriptional activity inhibition. A673 NR0B1-luciferase reporter, viability-normalised. inhibition, % at 12.6 µM. 0.67% of 350,000 active. AID 651661;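 active = mean inhibition of at least 50% after viability correction, with every replicate also passing that limit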;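 note: firefly luciferase signal divided by Alamar Blue viability fluorescence both relative to DMSO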
DNA binder FP: binds DNA displacing acridine orange; shares compounds with EWS-Fli block; salmon sperm DNA acridine orange fluorescence polarization; AC35, µM (highest dose often 68 µM), inactives show top-dose activity change, negative = DNA binding; 2% of 640 active; AID 720586;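 active = fitted curve reaches a 35% signal fall AC35 below twice the sample's top valid tested dose, actives reach about 48 µM in these data; inactive = the rest, including activity in the rising direction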;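 note: lower polarization ratio signals compound binding to DNA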
* = called active by the depositor; / = not tested or not shown; [ ] = dose if it differs, or a comment.

nr | compound | LGR2 inh | miR122 inh | DNA binder FP | UUG fidelity
1 | CCc1ccc(NC(=O)C(C)OC(=O)C2CCC(=O)N2)cc1 (configuration not stated) | -18 | / | / | /
2 | CCOc1ccc(C(c2c(NC(=O)c3ccccc3)sc(C)c2C)N2CCN(CCO)CC2)cc1 (configuration not stated) | -5 | / | -14% | /
3 | C[C@@H]1CN([C@@H](C)CO)C(=O)c2cc(NS(=O)(=O)c3ccccc3)ccc2O[C@H]1CN(C)S(=O)(=O)c1ccc(F)cc1 | 4 | -6[16.7 µM] | / | /
4 | O=C(CN1C(=O)c2ccccc2S1(=O)=O)c1ccccc1 | / | 2 | / | -10
5 | C=CCn1c(C)cc(C(=O)CN2C(=O)c3ccccc3S2(=O)=O)c1C | / | 1 | / | -14
6 | Cc1cc(C(=O)CN2C(=O)c3ccccc3S2(=O)=O)c(C)n1C(C)C | 76* | / | -6% | -13
7 | CCn1c(C)cc(C(=O)CN2C(=O)c3ccccc3S2(=O)=O)c1C | 72* | / | 3% | -27
8 | Cc1ccc(C(=O)CN2C(=O)c3ccccc3S2(=O)=O)cc1 | 95* | -3 | 3% | -13

nr | EWS-Fli block | CFTR F508del cor | PglD inh
1 | -5 | 3 | /
2 | 80* | / | /
3 | -2 | -1 | /
4 | / | / | 7
5 | / | / | 0
6 | 73* | -3 | -6
7 | 78* | 2 | -2
8 | 77* | -2 | 0

Additional entries.
nr | compound | LGR2 inh | miR122 inh | DNA binder FP | UUG fidelity
9 | Cc1cccc(-c2ccc([C@H]3[C@H]4CN(S(=O)(=O)c5cccs5)CCCCN4[C@H]3CO)cc2)c1 | 2 | -3[16.7 µM] | / | -12
10 | Cc1nn(-c2ccccc2)c2sc(C(=O)OCc3nnc(-c4ccccc4)o3)cc12 | / | -2 | / | -9
11 | Cc1csc(=O)n1CC(=O)Nc1ccc(C(C)C)cc1 | -21 | / | / | -8
12 | CCOC(=O)CNC(=O)C1(/C=C/c2ccccc2)CC(=O)N1c1ccc(OC)cc1 (configuration not stated) | 8 | / | / | -1
13 | CO[C@H]1CN(C)C(=O)c2cc(NC(=O)NC(C)C)ccc2OC[C@H](C)N(Cc2ccc(-c3ccccn3)cc2)C[C@@H]1C | 47 | 11[16.7 µM] | 12% | 6
14 | CN1C/C(=C/c2ccsc2)C(=O)/C(=C/c2ccsc2)C1 | 8 | -1 | -13% | -6
15 | O=C1/C(=C\c2ccsc2)N2CCC1CC2 | -8 | 2 | / | -22
16 | N#CC1=C(N)Oc2cc(N)ccc2C1c1cccc(Br)c1 (configuration not stated) | -4 | 18 | 6% | 2

nr | EWS-Fli block | CFTR F508del cor | PglD inh
9 | 13 | -4 | 1
10 | / | / | 2
11 | -49 | 1 | 9
12 | 5 | 2 | 1
13 | 51* | -2 | 3
14 | 61* | / | -17
15 | 7 | 0 | -3
16 | 62* | / | -11

One compound at a time, as listed above:
O=C1/C(=C\c2ccsc2)N2CCC1CC2 is entered as LGR2 inh: -8; miR122 inh: 2; DNA binder FP: /; UUG fidelity: -22; EWS-Fli block: 7; CFTR F508del cor: 0; PglD inh: -3
CN1C/C(=C/c2ccsc2)C(=O)/C(=C/c2ccsc2)C1 is entered as LGR2 inh: 8; miR122 inh: -1; DNA binder FP: -13%; UUG fidelity: -6; EWS-Fli block: 61*; CFTR F508del cor: /; PglD inh: -17

New compounds follow.
nr | compound | LGR2 inh | miR122 inh | DNA binder FP | UUG fidelity
17 | COc1ccc(S(=O)(=O)N(C)C[C@@H]2Oc3c(NS(=O)(=O)c4ccc(F)cc4)cccc3C(=O)N([C@@H](C)CO)C[C@H]2C)cc1 | 14 | 7[16.7 µM] | / | 31
18 | Cc1cc(OC(C)C(=O)N2CCN(c3ccccc3)CC2)c2c(C)c(C)c(=O)oc2c1 (configuration not stated) | 27 | 2 | / | -8
19 | C[C@@H]1CCCCO[C@@H](CN(C)Cc2ccc(C(F)(F)F)cc2)[C@@H](C)CN([C@H](C)CO)C(=O)c2cc(NS(=O)(=O)c3ccc(F)cc3)ccc2O1 | 15 | -6[16.7 µM] | / | 1
20 | C[C@H](CO)N1C[C@H](C)[C@@H](CN(C)Cc2ccc(C(F)(F)F)cc2)OCCCC[C@H](C)Oc2ccc(NC(=O)Nc3ccccc3)cc2C1=O | 10 | 2[16.7 µM] | / | 7
21 | C[C@H]1CCCCO[C@H](CN(C)Cc2ccc(C(F)(F)F)cc2)[C@@H](C)CN([C@@H](C)CO)C(=O)c2cc(NC(=O)Nc3ccccc3)ccc2O1 | 13 | -3[16.7 µM] | -9% | 4
22 | C[C@H](CO)N1C[C@H](C)[C@@H](CN(C)Cc2ccc(C(F)(F)F)cc2)OCCCC[C@H](C)Oc2ccc(NS(=O)(=O)c3ccc(F)cc3)cc2C1=O | -13 | 6[16.7 µM] | -4% | 16
23 | C[C@@H]1CCCCO[C@@H](CN(C)C(=O)Cc2ccccc2)[C@@H](C)CN([C@@H](C)CO)C(=O)c2cc(NS(=O)(=O)c3ccc(F)cc3)ccc2O1 | 21 | 0[16.7 µM] | -9% | -7

nr | EWS-Fli block | CFTR F508del cor | PglD inh
17 | -7 | 0 | -1
18 | / | 1 | -3
19 | -14 | 2 | 2
20 | 11 | -3 | -2
21 | 65* | -3 | 0
22 | 56* | 3 | -1
23 | 64* | 0 | 0
